# Measurements published in patent US20070244123A1.
# The chains behind the UniProt entries cited, without tags or fusion partners.
# UniProt P15056, whole entry: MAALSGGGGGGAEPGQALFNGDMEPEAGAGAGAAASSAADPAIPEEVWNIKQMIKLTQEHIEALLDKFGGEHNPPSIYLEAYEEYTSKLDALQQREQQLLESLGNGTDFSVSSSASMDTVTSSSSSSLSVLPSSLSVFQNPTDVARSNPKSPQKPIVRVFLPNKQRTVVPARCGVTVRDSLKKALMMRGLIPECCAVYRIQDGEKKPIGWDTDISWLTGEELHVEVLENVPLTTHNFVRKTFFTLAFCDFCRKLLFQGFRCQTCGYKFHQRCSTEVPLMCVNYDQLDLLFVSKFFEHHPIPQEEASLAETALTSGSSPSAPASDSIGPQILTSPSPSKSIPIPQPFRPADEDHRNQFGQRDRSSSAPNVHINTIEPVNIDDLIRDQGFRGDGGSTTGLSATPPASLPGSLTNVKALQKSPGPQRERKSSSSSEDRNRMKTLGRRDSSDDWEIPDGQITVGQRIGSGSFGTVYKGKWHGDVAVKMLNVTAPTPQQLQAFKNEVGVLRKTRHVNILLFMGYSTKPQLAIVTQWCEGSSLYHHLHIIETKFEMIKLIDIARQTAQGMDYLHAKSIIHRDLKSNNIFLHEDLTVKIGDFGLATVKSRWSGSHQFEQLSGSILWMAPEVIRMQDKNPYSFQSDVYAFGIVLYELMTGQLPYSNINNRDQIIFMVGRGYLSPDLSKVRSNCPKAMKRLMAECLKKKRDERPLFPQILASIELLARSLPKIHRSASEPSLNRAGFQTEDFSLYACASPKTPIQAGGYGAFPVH
# Read-outs that look alike come from different tables or passages of the source.
# Assays:
# B-Raf = B-Raf (Homo sapiens, UniProt P15056); assay: Fluorescence anisotropy kinase binding assay (Assay 1); details: read-out: B-Raf, nM Kd
# From the text: Fluorescence Anisoptrophy Kinase Binding Assay
# The concentration of kinase enzyme should preferably be ≦1× Kf. The concentration of fluorescent ligand required will depend on the instrumentation used, and the fluorescent and physicochemical properties. The concentration used must be lower than the concentration of kinase enzyme, and preferably less than half the kinase enzyme concentration. A typical protocol is:
# All compounds are serially diluted in DMSO, then by a one step dilution into buffer of comparison, 50 mM HEPES, […] pH7.5, 1 mM CHAPS, 10 mM MgCL2, for the assay.
# B-Raf Enzyme concentration: 1 nM
# Fluorescent ligand concentration: 0.5 nM
# Test compound concentration: 0.5 nM-100 uM
# Components incubated in 10 ul final volume in LJL HE 384 type B black microtitre plate until equilibrium reached (Over 3 h, up to 30 h)
# Fluorescence anisotropy read in an LJL Acquest fluorescence reader.
# Definitions: Ki=dissociation constant for inhibitor binding
# • Kf=dissociation constant for fluorescent ligand binding
# The fluorescent ligand is the following compound: [drawing 7]
# which is derived from 5-[2-(4-aminomethylphenyl)-5-pyridin-4-yl-1H-imidazol-4-yl]-2-chlorophenol and rhodamine green.
# [1] = system: Normal human foreskin fibroblasts (HFF); assay: Methylene blue growth inhibition assay (Assay 2), HFF
# Procedure: (§1) Methylene Blue Growth Inhibition Assay (Assay 2)
# (§2) Normal human foreskin fibroblasts (HFF), human melanoma (A375P, SKMEL2, SKMEL3 ) colon carcinoma (Colo 205) were cultured in the following growth media: A375P, Colo 205, Roswell Park Memorial Institute (RPMI) 1640 (Life Technologies 22400-089) containing 10% fetal bovine serum (FBS); HFF, Dulbecco's modified Eagle Medium (DMEM) (Life Technologies 12320-032) containing 10% FBS; SKMEL2 and SKMEL3, Minimum Essential Medium (MEM, Life Technologies 11095-080) containing 1× non-essential amino acids (Life Technologies 11140-050) and 10% FBS. Cells were harvested using 0.25 %trypsin/1 mM, EDTA, counted using a haemocytometer, and plated in 100 microliters of the appropriate media, at the following densities, in a 96-well tissue culture plate (Falcon 3075): HFF and A375P, 5,000 cells/well; all other cell lines, 10,000 cells/well. The next day, compounds were diluted in RPMI containing 100 micrograms/ml gentamicin, at twice the final required concentration, from 10 mM stock solutions in dimethyl sulphoxide (DMSO). One hundred microliters per well of these dilutions were added to the 100 microliters of media currently on the cell plates. RPMI containing 0.6% DMSO was added to control wells. […] Optical density at 620 nm was measured on a microplate reader. Percent inhibition of cell growth was calculated relative to vehicle treated control wells. […]
# [2] = system: human colon carcinoma (Colo 201) cells; assay: XTT 72 hr growth inhibition (Assay 3), Colo201; details: Colo201, colorectal cancer, Assay 3, 72 hr
# Procedure: XTT 72 hr Growth Inhibition Protocol for Mammalian Cultured Cells (Assay 3)
# Human diploid foreskin fibroblasts (HFF) or human colon carcinoma (Colo 201) cells were grown in Dulbecco's modified Eagle's medium (DMEM) (Invitrogen/Life Technologies) containing 10% fetal bovine serum (FBS) and the antibiotics penicillin (100 Units/ml) and streotomycin (100 micrograms/ml) (Invitrogen/Life Technologies). Growth was at 37° C. in humidified 5% CO2 incubators in 75 cm^2 plastic flasks. Cells were harvested using 0.25% trypsin/1 mM ethylenediaminetetraacetic acid (EDTA), resuspended in growth medium, and counted using a hemocytometer. Flat-bottomed 96-well plates were seeded with 2×10^3 cells/well in a volume of 200 ul from trypsinized exponentially growing cultures. To “blank” wells, growth medium was added with no additions. Cells were incubated overnight to permit attachment.
# Next day, medium from wells that contained cells was replaced with 180 microliters of fresh medium. Appropriate dilutions of test compounds were added to the wells from stock solutions of compound dissolved in dimethyl sulfoxide (DMSO); final DMSO concentration in all wells was 0.2%. […] Absorbance at 450 nm was then determined using a 96-well UV plate reader (Molecular Devices). Under these conditions, absorbance of untreated control cells at 450 nm was at least 1.0 optical density unit/ml. […]
# [3] = system: colon carcinoma (Colo 205); assay: Methylene blue growth inhibition assay (Assay 2), Colo205; details: Colo205, colorectal cancer, B-Raf V599E, Ras wt, Assay 2, 3 days
# Procedure: as §1, §2
# human melanoma A375P = assay: Methylene blue growth inhibition assay (Assay 2), A375P
# Procedure: as §1, §2
# human melanoma SKMEL3 = assay: Methylene blue growth inhibition assay (Assay 2), SKMEL3
# Procedure: as §1, §2
# human melanoma SKMEL2 = assay: Methylene blue growth inhibition assay (Assay 2), SKMEL2
# Procedure: as §1, §2
compound,measurement,setting,value
CN(C)CCN(C)C(=O)c1cc(-c2ccncc2)c(-c2ccc(Cl)c(O)c2)o1,Kd,B-Raf,18 nM
same,IC50,"[1]; read-out: IC50 class HFF, B-Raf wt, Ras wt, Assay 2, 3 days",> 3 µM
same,IC50,"[1]; read-out: IC50 growth inhibition HFF, B-Raf wt, Ras wt, Assay 2, 3 days",> 30 µM
same,IC50,[2]; read-out: IC50 class Colo201,> 3 µM
same,IC50,[2]; read-out: IC50 growth inhibition Colo201,12 µM
same,IC50,[3]; read-out: IC50 class Colo205,> 3 µM
same,IC50,[3]; read-out: IC50 growth inhibition Colo205,> 19 µM
same,IC50,"human melanoma A375P; read-out: IC50 class A375P, B-Raf V599E, Ras wt, Assay 2, 3 days",> 3 µM
same,IC50,"human melanoma A375P; read-out: IC50 growth inhibition A375P, B-Raf V599E, Ras wt, Assay 2, 3 days",9.8 µM
same,IC50,"human melanoma SKMEL3; read-out: IC50 class SKMEL3, B-Raf V599E, Ras wt, Assay 2, 3 days",> 3 µM
same,IC50,"human melanoma SKMEL3; read-out: IC50 growth inhibition SKMEL3, B-Raf V599E, Ras wt, Assay 2, 3 days",4.3 µM
same,IC50,"human melanoma SKMEL2; read-out: IC50 class SKMEL2, B-Raf wt, [Q61R]N-Ras, Assay 2, 3 days",> 3 µM
same,IC50,"human melanoma SKMEL2; read-out: IC50 growth inhibition SKMEL2, B-Raf wt, [Q61R]N-Ras, Assay 2, 3 days",6.2 µM
